# AlphaSeq binding of Ab-91 heavy chain variants to a spike HR2 peptide

All variants were tested on one target, the spike HR2 peptide PDVDLGDISGINAS (SARS-CoV-2).

Parent scFv Ab-91: VL joined to VH by the linker GGGGSGGGGSGGGGS. Changes lie in the heavy chain CDRs alone.
VL: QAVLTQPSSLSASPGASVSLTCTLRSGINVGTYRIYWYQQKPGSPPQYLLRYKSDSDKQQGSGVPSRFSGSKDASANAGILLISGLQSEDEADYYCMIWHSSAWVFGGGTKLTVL
VH: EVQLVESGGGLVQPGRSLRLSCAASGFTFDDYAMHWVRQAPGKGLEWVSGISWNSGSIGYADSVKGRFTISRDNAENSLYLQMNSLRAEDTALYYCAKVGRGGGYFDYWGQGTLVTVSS

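The library (AAYL51) carries one to three amino acid substitutions per variant, with no insertions or deletions. Affinity was read by AlphaSeq, a pooled yeast mating assay with surface-displayed partners. Mating (16 h, 30 °C) was followed by selection of diploids and sequencing of their barcodes. Scores were corrected for input abundance and mapped to Kd with protein pairs of known affinity run in the same pool. There are three technical replicates.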

Substitutions are numbered in sequence along the VH above, starting at 1 (not Kabat).
All variants listed here change K65 of the VH, counted from its first residue.
Values are apparent Kd, the geometric mean of the replicates that gave a signal; lower means stronger binding.
"nd" marks a missing value. The strain was present, yet no cells mated with the target were sequenced in any replicate, which points to weak or no binding.
Nonspecific signal, from three strains lacking the peptide, appeared in 21% of pairings of library AAYL51, centred on 34 µM (5% of these signals below 1.8 µM); values are not corrected for it. For each scFv, signals with the empty controls are counted beside the result.

changes	apparent Kd	detected	control signals
N54M+K65E	170 µM	2/3	3/9
G26F+D31P+K65A	nd	0/3	1/9
I51D+K65T	nd	0/3	1/9
W53A+K65Y+G104Y	15 nM	3/3	3/9
G59H+K65W+D107N	nd	0/3	0/9
S55Q+G59M+K65E	nd	0/3	0/9
V64P+K65T+Y108L	6.6 µM	2/3	2/9
G50P+K65N+G103D	nd	0/3	0/9
I58D+K65D+G100V	nd	0/3	0/9
T28D+D31M+K65W	4.6 nM	3/3	1/9
K65V+G104W	1.6 µM	3/3	3/9
D31P+G59L+K65Q	nd	0/3	0/9
M34N+S57G+K65W	nd	0/3	1/9
T28F+H35S+K65A	65 µM	3/3	4/9
A33M+K65V+Y105E	nd	0/3	3/9
G26P+K65W+G100V	22 µM	2/3	4/9
F27N+A33K+K65W	71 µM	3/3	3/9
D31N+K65Y+F106W	72 nM	3/3	3/9
N54M+K65S+G104E	52 µM	1/3	2/9
G56Q+K65N+Y108F	nd	0/3	2/9
Y60P+K65C+G103H	nd	0/3	1/9
D30P+K65Y+D107E	23 nM	2/3	0/9
I58P+Y60W+K65L	nd	0/3	3/9
K65T+G102I+Y105W	20 nM	3/3	0/9
K65F	13 nM	3/3	3/9
G59C+K65E+D107S	nd	0/3	0/9
S55Y+K65I+G104S	150 µM	1/3	1/9
K65G	110 nM	3/3	2/9
G26D+A33H+K65M	170 µM	3/3	7/9
A33Y+G56P+K65L	120 µM	3/3	3/9
W53R+Y60R+K65T	27 µM	1/3	2/9
D30Q+A33G+K65C	nd	0/3	2/9
G59D+K65T	810 µM	2/3	3/9
D30L+K65W	8.9 µM	3/3	0/9
S55L+K65C+G103W	2.1 µM	1/3	0/9
D30Y+I58T+K65T	11 µM	2/3	3/9
F27L+K65A	nd	0/3	1/9
W53A+V64D+K65G	260 nM	3/3	1/9
M34T+K65M+D107W	nd	0/3	1/9
S52M+S63R+K65E	nd	0/3	2/9
D62T+K65L+D107K	nd	0/3	0/9
G26C+K65A	24 µM	2/3	4/9
I58A+Y60Q+K65N	nd	0/3	3/9
K65G+G103T	76 nM	3/3	1/9
A33H+K65C	98 µM	3/3	0/9
F27P+Y32D+K65E	nd	0/3	0/9
F29A+W53F+K65D	60 µM	2/3	6/9
I51F+S63K+K65D	640 µM	1/3	2/9
I58E+K65I	3.8 nM	3/3	8/9
Y60E+K65C+Y108I	200 µM	1/3	2/9
K65G+G104K+D107E	290 µM	2/3	2/9
G26K+K65D+V99K	47 µM	2/3	3/9
T28Y+K65T+V99P	nd	0/3	2/9
N54R+K65A+G100R	8.8 µM	1/3	3/9
D30K+K65E+Y105K	300 nM	3/3	4/9
H35T+K65F+D107V	230 µM	1/3	4/9
K65P+Y108K	7.7 µM	1/3	1/9
G59W+Y60E+K65Q	30 µM	1/3	1/9
M34Y+K65Y+R101K	45 nM	3/3	2/9
D31H+K65N+F106K	110 nM	3/3	1/9
N54F+I58N+K65W	190 µM	1/3	1/9
D62R+K65E	3.7 nM	3/3	7/9
S57A+K65M	130 nM	3/3	6/9
G56L+K65T+G103Q	25 µM	2/3	1/9
T28I+K65V+Y105H	14 µM	1/3	0/9
W53P+Y60W+K65M	nd	0/3	0/9
H35Q+K65H+R101N	180 nM	3/3	0/9
Y32P+S63L+K65P	nd	0/3	0/9
M34P+A61E+K65T	19 µM	1/3	0/9
G56F+K65H+G104E	130 nM	3/3	4/9
S55P+K65I+G100S	nd	0/3	2/9
A33P+K65G+Y108M	430 nM	3/3	0/9
F27G+K65L	1.7 µM	3/3	2/9
S52N+K65F+F106Y	nd	0/3	0/9
F27Q+T28M+K65P	63 µM	2/3	2/9
T28D+I58G+K65L	330 µM	1/3	4/9
I51W+D62G+K65Q	nd	0/3	0/9
S52W+K65M+R101K	nd	0/3	0/9

Picked from the list: the 10 lowest averages where every replicate gave a value.

changes	apparent Kd	detected	control signals
D62R+K65E	3.7 nM	3/3	7/9
I58E+K65I	3.8 nM	3/3	8/9
T28D+D31M+K65W	4.6 nM	3/3	1/9
K65F	13 nM	3/3	3/9
W53A+K65Y+G104Y	15 nM	3/3	3/9
K65T+G102I+Y105W	20 nM	3/3	0/9
M34Y+K65Y+R101K	45 nM	3/3	2/9
D31N+K65Y+F106W	72 nM	3/3	3/9
K65G+G103T	76 nM	3/3	1/9
K65G	110 nM	3/3	2/9

Parent in this assay: reference entry 72 nM, copy in this library 7.5 nM.

Source: Engelhart et al. 2022 (doi:10.1038/s41597-022-01779-4), MIT Lincoln Laboratory and A-Alpha Bio; data file from the FLAb repository.